Values of other authors in patent US20230265432A1, “METHODS AND COMPOSITIONS FOR TREATING ACUTE MYELOID LEUKEMIA” (Sanford Burnham Prebys Medical Discovery Institute, priority 2021, published 2023).
pIC50, pKi: −log10 of the molar value.

The chains behind the UniProt entries cited, without tags or fusion partners. Where a name states a change or a piece, a line headed by the entry shows the natural chain unless it says otherwise.
UniProt P23526: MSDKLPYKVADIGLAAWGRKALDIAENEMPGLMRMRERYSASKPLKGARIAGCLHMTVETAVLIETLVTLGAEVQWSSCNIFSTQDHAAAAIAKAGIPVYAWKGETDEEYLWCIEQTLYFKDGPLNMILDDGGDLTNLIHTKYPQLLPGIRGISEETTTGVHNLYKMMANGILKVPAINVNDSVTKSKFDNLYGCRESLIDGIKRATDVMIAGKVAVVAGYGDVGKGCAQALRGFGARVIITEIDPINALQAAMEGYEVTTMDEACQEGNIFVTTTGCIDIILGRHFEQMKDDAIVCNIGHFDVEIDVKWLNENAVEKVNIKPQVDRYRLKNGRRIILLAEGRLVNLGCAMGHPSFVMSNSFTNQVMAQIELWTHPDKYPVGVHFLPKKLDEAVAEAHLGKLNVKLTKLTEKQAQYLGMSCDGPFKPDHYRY
UniProt Q15059, whole entry, species assumed: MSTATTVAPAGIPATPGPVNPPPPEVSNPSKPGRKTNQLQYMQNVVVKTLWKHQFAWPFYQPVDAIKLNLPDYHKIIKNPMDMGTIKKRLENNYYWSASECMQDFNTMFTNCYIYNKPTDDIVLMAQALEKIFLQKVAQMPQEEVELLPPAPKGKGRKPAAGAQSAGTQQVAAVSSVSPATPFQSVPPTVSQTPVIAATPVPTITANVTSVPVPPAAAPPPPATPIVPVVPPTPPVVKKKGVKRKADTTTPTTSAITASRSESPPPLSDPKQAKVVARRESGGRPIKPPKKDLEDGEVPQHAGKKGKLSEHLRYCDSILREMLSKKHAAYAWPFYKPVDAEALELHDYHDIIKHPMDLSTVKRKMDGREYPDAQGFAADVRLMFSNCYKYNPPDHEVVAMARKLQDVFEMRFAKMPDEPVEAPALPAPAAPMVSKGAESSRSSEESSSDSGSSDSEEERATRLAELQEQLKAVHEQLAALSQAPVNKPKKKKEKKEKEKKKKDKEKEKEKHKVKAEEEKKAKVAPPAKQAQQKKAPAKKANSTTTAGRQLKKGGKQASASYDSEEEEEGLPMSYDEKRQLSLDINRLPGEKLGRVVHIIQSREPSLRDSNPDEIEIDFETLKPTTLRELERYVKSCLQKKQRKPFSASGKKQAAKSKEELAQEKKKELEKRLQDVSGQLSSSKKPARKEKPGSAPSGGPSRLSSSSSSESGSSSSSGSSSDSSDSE
UniProt P25440, whole entry, species assumed: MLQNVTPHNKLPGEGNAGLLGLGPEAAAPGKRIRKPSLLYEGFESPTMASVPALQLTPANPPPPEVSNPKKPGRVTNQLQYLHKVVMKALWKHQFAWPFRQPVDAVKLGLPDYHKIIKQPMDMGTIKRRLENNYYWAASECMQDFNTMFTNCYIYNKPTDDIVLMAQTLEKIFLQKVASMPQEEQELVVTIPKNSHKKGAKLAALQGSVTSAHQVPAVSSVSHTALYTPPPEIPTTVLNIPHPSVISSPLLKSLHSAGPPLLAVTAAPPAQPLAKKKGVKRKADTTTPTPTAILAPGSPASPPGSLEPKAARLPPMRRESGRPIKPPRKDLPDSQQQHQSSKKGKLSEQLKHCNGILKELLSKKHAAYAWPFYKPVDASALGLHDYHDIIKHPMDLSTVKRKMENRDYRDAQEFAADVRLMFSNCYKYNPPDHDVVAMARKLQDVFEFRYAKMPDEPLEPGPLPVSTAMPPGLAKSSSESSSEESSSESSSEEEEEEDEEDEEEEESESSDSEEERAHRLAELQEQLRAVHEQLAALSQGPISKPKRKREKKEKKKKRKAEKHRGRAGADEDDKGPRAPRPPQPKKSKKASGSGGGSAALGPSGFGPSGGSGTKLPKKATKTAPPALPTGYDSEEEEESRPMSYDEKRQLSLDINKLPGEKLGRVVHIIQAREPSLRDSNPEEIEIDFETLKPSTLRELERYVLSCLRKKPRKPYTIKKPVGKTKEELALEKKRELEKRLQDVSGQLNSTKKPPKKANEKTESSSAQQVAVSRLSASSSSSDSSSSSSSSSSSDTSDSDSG

Experiments:
Conditions in all cases: cited from earlier work
[1] = molecular target: S-adenosylhomocysteine hydrolase (Homo sapiens, UniProt P23526)
EGFR = EGFR (Homo sapiens, UniProt P00533)
BRD3 = BRD3 (Homo sapiens, UniProt Q15059)
BRD2 = BRD2 (Homo sapiens, UniProt P25440)

(−)-Neplanocin A
pKi [1]: 8.08

AG-490 (Tyrphostin B42)
pIC50 (EGFR): 7.00

I-BET151 (GSK1210151A)
pIC50 (BRD3): 6.60 | pIC50 (BRD2): 6.30
